Target: rabbit thrombin (Oryctolagus cuniculus, UniProt Q28731)
Experiment: biochemical

Molecule C[C@@H]1CCC[C@H](n2cnc(-c3cc(Cl)ccc3-n3cc(Cl)nn3)cc2=O)c2cc(ccn2)-c2c(cnn2C(F)F)NC1=O [milvexian] has a Ki of 1700 nM.

From paper PMC9299130 (Journal of Thrombosis and Haemostasis, 2021)
